Source: patent publication US10918713B2, “Epitopes from allergen proteins and methods and uses for immune response modulation” (LA JOLLA INSTITUTE FOR ALLERGY AND IMMUNOLOGY, priority 2012, dated 2021)

Columns and labels:
Type in all cases: cell-based, human
[1] = test system: PBMC from allergic donors; assay: Dual ELISPOT, total IL-5 and IFN-γ response (SFC); conditions: sum of IFNg and IL-5; one donor per table line
Method: (§1) Spots were counted by computer-assisted image analysis (Zeiss, KS-ELISPOT reader, Munich, Germany).
(§2) Each assay was performed in triplicate. The level of statistical significance was determined with a Student's t-test using the mean of triplicate values of the response against relevant pools or individual peptides versus the response against the DMSO control.

[2] = test system: PBMC from allergic donors; assay: IL-5 ELISPOT with extract-stimulated short-term lines; conditions: positive donor/peptide response; one donor per table line
Method: as §1, §2

[3] = test system: PBMC from allergic donors; assay: IFN-γ ELISPOT with extract-stimulated short-term lines; conditions: positive donor/peptide response; one donor per table line
Method: as §1, §2

| SMILES | Response (SFC/10^6) Total [1] | Response (SFC/10^6) IL-5 [2] | Response (SFC/10^6) IFNg [3] |
| --- | --- | --- | --- |
| CC[C@H](C)[C@H](NC(=O)[C@H](CO)NC(=O)CNC(=O)CN)C(=O)N[C@@H](CC(C)C)C(=O)N[C@@H](CCCCN)C(=O)N[C@H](C(=O)N[C@@H](CO)C(=O)N[C@@H](CC(N)=O)C(=O)N[C@@H](CCCCN)C(=O)N[C@@H](Cc1ccc(O)cc1)C(=O)N[C@@H](Cc1c[nH]cn1)C(=O)N[C@H](C(=O)N[C@@H](CCCCN)C(=O)NCC(=O)O)[C@@H](C)O)[C@@H](C)CC [3324.0352] | 280 SFC/10^6 and 612 SFC/10^6 and 240 SFC/10^6 | 280 SFC/10^6 | 612 SFC/10^6 and 240 SFC/10^6 |
| CC[C@H](C)[C@H](NC(=O)[C@H](CCCCN)NC(=O)[C@H](CCC(=O)O)NC(=O)[C@@H](N)CC(C)C)C(=O)N[C@@H](CO)C(=O)N[C@@H](CC(N)=O)C(=O)N[C@@H](CCC(=O)O)C(=O)N[C@H](C(=O)N[C@@H](CCCCN)C(=O)N[C@H](C(=O)N[C@H](C(=O)N[C@@H](C)C(=O)N[C@H](C(=O)N1CCC[C@H]1C(=O)N[C@@H](CC(=O)O)C(=O)O)[C@@H](C)O)C(C)C)[C@@H](C)CC)[C@@H](C)CC [3324.0353] | 92 SFC/10^6 and 370 SFC/10^6 | 370 SFC/10^6 | 92 SFC/10^6 |

Several values for one entry are separate records, joined by “and”; a condition that tells them apart may be missing. Identical values can stand only once.
